This is a selection; strong and weak results do not stand in their true shares. Records with an inconclusive call do not appear. Activity calls are given as the source filed them. Unless noted, calls follow the shape of the dose curve; as a rule, active = well fitted cell-killing curve with a large enough effect; inconclusive = small, poorly fitted or top-dose-only effect; inactive = flat fitted curve, though single readings scatter.
Legend:
[1] = Cell Viability - LYMP2-019 (AID 973); conditions: LYMP2-019 lymphoblastoid cell line viability; at 92.2 µM (top of the series);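 also: 0% = DMSO alone and full effect = 92 µM tetraoctylammonium bromide; nearly all actives have a fitted effect of over 55% in size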
In short: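 Cells plated at 2500/well and allowed 5 hr at 37 C before compound addition. After 24 hr incubation, CellTiter-Glo reagent was added, plates sat 30 min at room temperature, and luminescence was recorded.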

[2] = Cell Viability - LYMP2-021 (AID 974); conditions: LYMP2-021 lymphoblastoid cells viability; at 92.2 µM (top of the series);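 also: compound exposure lasts 24 hours at 37 °C; % is scaled to controls: 0 for no effect and ±100 for the full control effect; nearly all actives have a fitted effect of over 55% in size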
In short: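 Concentration-response cytotoxicity in a human lymphoblastoid line: 24 hr treatment at 37 C in complete culture medium, tetraoctylammonium bromide as positive control, luminescent ATP quantitation as viability measure.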

[3] = Cell Viability - LYMP2-023 (AID 975); conditions: LYMP2-023 lymphoblastoid cell viability; at 92.2 µM (top of the series);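 also: cellular ATP measured by luciferase luminescence as viability proxy; plate controls were DMSO only for no effect and 92 µM tetraoctylammonium bromide control for full effect; nearly all actives have a fitted effect of over 55% in size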
In short: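 Concentration-dependent drop in intracellular ATP measures acute cytotoxicity in a human lymphoblastoid line treated for 24 hours in complete culture medium. AC50 values are taken from Hill-equation fits of qHTS data.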

[4] = Cell Viability - LYMP2-025 (AID 976); conditions: LYMP2-025 lymphoblastoid cell viability; at 92.2 µM (top of the series);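 also: plate controls were DMSO only for no effect and tetraoctylammonium bromide control for full effect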
In short: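 In qHTS format, LYMP2-025 lymphoblastoid cells in complete culture medium received compound for 24 hr; ATP-based CellTiter-Glo signal gave viability, with AC50 derived by Hill equation.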

[5] = Cell Viability - LYMP2-002 (AID 977); conditions: LYMP2-002 lymphoblastoid cell viability, qHTS; at 92.2 µM (top of the series);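 also: plate controls were DMSO only for no effect and 92 µM tetraoctylammonium bromide for full effect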
In short: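 Human lymphoblastoid LYMP2-002 cells, 2500 per well, exposed to compounds for 24 h at 37 C in complete medium; viability read as intracellular ATP by CellTiter-Glo luminescence, AC50 from Hill fits.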

[6] = Cell Viability - LYMP2-006 (AID 978); conditions: LYMP2-006 lymphoblastoid cell viability, qHTS; at 92.2 µM (top of the series); also: % is scaled to controls: 0 for no effect and ±100 for the full control effect; nearly all actives have a fitted effect of over 60% in size
In short: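 Potency values are Hill-fit AC50s for decreases in intracellular ATP (CellTiter-Glo luminescence). LYMP2-006 lymphoblastoid cells, 2500 per well, were exposed to compound in complete culture medium for 24 hr at 37 C.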

[7] = Cell Viability - LYMP2-007 (AID 979); conditions: LYMP2-007 lymphoblastoid cell viability; at 92.2 µM (top of the series);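 also: cells exposed to compound for 24 h before reading; 0% = DMSO only and the negative end = 92 µM tetraoctylammonium bromide; nearly all actives have a fitted effect of over 60% in size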
In short: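 Acute toxicity is scored as a concentration-dependent fall in intracellular ATP in human lymphoblastoid cells treated 24 hr at 37 C, measured by luciferase luminescence; Hill-equation modelling yields AC50.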

[8] = Cell Viability - LYMP2-008 (AID 980); conditions: LYMP2-008 lymphoblastoid cell viability, qHTS; at 92.2 µM (top of the series); also: % is scaled to controls: 0 for no effect and ±100 for the full control effect; nearly all actives have a fitted effect of over 60% in size
In short: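 Acute cytotoxicity is scored as concentration-dependent loss of cellular ATP in a human lymphoblastoid line after 24 hr treatment at 37 C. ATP is quantified by luciferase luminescence.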

[9] = Cell Viability - LYMP2-010 (AID 981); conditions: LYMP2-010 lymphoblastoid cell viability, qHTS; at 92.2 µM (top of the series); also: % is scaled to controls: 0 for no effect and ±100 for the full control effect; nearly all actives have a fitted effect of over 55% in size
In short: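 Acute toxicity is scored as a concentration-dependent loss of cellular ATP in human lymphoblastoid cells after 24 hr compound exposure in complete medium. Tetraoctylammonium bromide is the positive control.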

[10] = Cell Viability - LYMP2-012 (AID 982); conditions: LYMP2-012 lymphoblastoid cell viability qHTS; at 92.2 µM (top of the series)
[11] = Cell Viability - LYMP2-014 (AID 983); conditions: LYMP2-014 lymphoblastoid cells, viability qHTS; at 92.2 µM (top of the series);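 also: plate controls were DMSO only for no effect and 92 µM tetraoctylammonium bromide for full effect; nearly all actives have a fitted effect of over 50% in size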
In short: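 Decrease in intracellular ATP after 24 hr treatment at 37 C, measured by luciferase luminescence, indicated cytotoxicity. Concentration-response data were fitted with the standard Hill equation to give AC50.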

[12] = Cell Viability - LYMP2-016 (AID 984); conditions: LYMP2-016 lymphoblastoid cell viability, qHTS; at 92.2 µM (top of the series)
In short: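 Cytotoxicity was scored by luminescent ATP content (CellTiter-Glo) after 24 h compound exposure at 37 C of a human lymphoblastoid line at 2500 cells/well. Concentration-response data were fitted to the Hill equation for AC50.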

[13] = Cell Viability - LYMP2-018 (AID 985); conditions: LYMP2-018 lymphoblastoid cells, viability (qHTS); at 92.2 µM (top of the series);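 also: compound exposure lasted 24 hr at 37 °C; plate controls were DMSO only for no effect and tetraoctylammonium bromide at 92 µM for full effect; nearly all actives have a fitted effect of over 50% in size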
In short: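 Acute cytotoxicity is scored as a concentration-dependent drop in intracellular ATP after 24 hr exposure of the lymphoblastoid line in complete culture medium, measured by luciferase luminescence. Potency is expressed as AC50 from Hill modelling.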

[14] = Cell Viability - LYMP2-020 (AID 986); conditions: LYMP2-020 lymphoma cell viability, qHTS; at 92.2 µM (top of the series)
In short: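 Acute cytotoxicity in a human lymphoblastoid line is scored as a concentration-dependent fall in cellular ATP after 24 hr at 37 C in complete medium. The positive control is tetraoctylammonium bromide, and potency is given as Hill-fit AC50.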

[15] = Cell Viability - LYMP2-022 (AID 987); conditions: LYMP2-022 lymphoblastoid cell viability; at 92.2 µM (top of the series)
In short: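 Acute toxicity in a human lymphoblastoid line is scored as decreased intracellular ATP after 24 hr compound treatment at 37 C. ATP is measured by CellTiter-Glo luminescence; curves are fitted with the Hill equation to give AC50.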

[16] = Cell Viability - LYMP2-024 (AID 988); conditions: LYMP2-024 lymphoblastoid cell viability; at 92.2 µM (top of the series);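 also: plate controls were DMSO only for no effect and 92 µM tetraoctylammonium bromide for full effect; nearly all actives have a fitted effect of over 60% in size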
In short: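 Acute toxicity is measured as concentration-dependent loss of intracellular ATP in a human lymphoblastoid line treated 24 hours at 37 C. Luciferase luminescence quantifies ATP; AC50 values come from standard Hill-equation modelling.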

[17] = Cell Viability - LYMP2-026 (AID 989); conditions: LYMP2-026 lymphoblastoid cell viability, qHTS; at 92.2 µM (top of the series); also: % is scaled to controls: 0 for no effect and ±100 for the full control effect; nearly all actives have a fitted effect of over 50% in size
In short: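 Concentration-dependent loss of intracellular ATP in human lymphoblastoid cells after 24 hr at 37 C, quantified by luciferase luminescence. AC50 derived from standard Hill equation.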

[18] = Cell Viability - LYMP1-002 - Assay at 24 hr (AID 993); conditions: LYMP1-002 lymphoblastoid cells viability; at 92.2 µM (top of the series); also: % is scaled to controls: 0 for no effect and ±100 for the full control effect
In short: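 qHTS, LYMP1-002 lymphoblastoid, 24 h cpd, 37 C, CellTiter-Glo ATP luminescence; AC50 via Hill eq.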

[19] = Cell Viability - LYMP1-002 - Assay at 40 hr (AID 994); conditions: LYMP1-002 lymphoblastoid cell viability; at 92.2 µM (top of the series)
In short: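 Viability in the human lymphoblastoid line was measured as intracellular ATP via CellTiter-Glo after 40 hr compound exposure. Tetraoctylammonium bromide served as positive control.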

[20] = qHTS Assay for Lipid Storage Modulators (AID 1519; calls by dose curve; also: % is scaled to controls: 0 for no effect and ±100 for the full control effect); conditions: Drosophila S3 cells, BODIPY lipid droplet/cell ratio, laser cytometry, cells loaded with oleic acid; at 57.5 µM (top of the series)

O=[N+]([O-])C(Cl)(Cl)Cl
inactive: activity change, negative = cytotoxicity [1] 2.58% | activity change, negative = cytotoxicity [2] -0.938% | activity change, negative = cytotoxicity [3] -0.274% | activity change, negative = cytotoxicity [4] -7.13% | activity change, negative = cytotoxic [5] -3.73% | activity change, negative = cytotoxicity [6] -3.38% | activity change, negative = cytotoxicity [7] 1.98% | activity change, negative = cytotoxicity [8] 1.92% | activity, negative = cytotoxicity [9] -3.02% | activity change, negative = cytotoxicity [10] -3.53% | activity change, negative = cytotoxicity [11] -0.5% | activity change, negative = cytotoxicity [12] -6.63% | activity change, negative = cytotoxicity [13] -2.8% | activity change, negative = viability loss [14] 2.78% | viability change, negative = cytotoxic [15] -1.41% | activity change, negative = cytotoxicity [16] -16.9% | activity change, negative = cytotoxic [17] 5.97% | activity change, negative = cytotoxicity [18] -8.21% | viability change, negative = cytotoxic [19] -5.26%

CN(CCCl)CCCl
inactive: activity change, negative = inhibition [20] -7.02%

Reference: PubChem BioAssay (NCATS)
